# TDP1 inh = blocks human tyrosyl-DNA phosphodiesterase 1; Q9NUW8; recombinant TDP1, AlphaScreen DNA substrate cleavage; actives 0.28% (n = 350,000); Potency, µM (highest dose often 130 µM), without a hit: at the highest dose activity change, negative = inhibition, usual class: inhibitors; further: potency means the concentration at half of the fitted maximal effect; on the % scale 0 is the no-effect control and ±100 the full control effect; nearly all actives have a fitted effect of over 40% in size
#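 Here, a 5' biotin and 3' phosphotyrosine-FITC DNA oligonucleotide reports Tdp1 activity: intact substrate bridges AlphaScreen beads, while cleavage leaves a 3' phosphate and drops signal. All incubations at room temperature.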
# uPA surface inh = blocks generation of uPA at the cell surface. cell surface uPA generation assay, qHTS. Potency, µM (top dose mostly 38.3 µM), for inactives: at the highest dose activity change, negative = inhibition, usual class: inhibitors. actives 0.31% (n = 330,000); active means well fitted inhibition curve with a large enough effect; inconclusive means small, poorly fitted or top-dose-only effect; inactive means no such curve, though single readings can be large or run the other way; tested in mouse RAW 264.7 cells; further: potency means the concentration at half of the fitted maximal effect; on the % scale 0 is the no-effect control and ±100 the full control effect; nearly all actives have a fitted effect of over 55% in size
# DT40 TDP1 no CPT = qHTS for Inhibitors of human tyrosyl-DNA phosphodiesterase 1 (TDP1): qHTS in cells in absence of CPT; DT40 Tdp1-/- hTDP1 cells, no CPT, ATP luminescence, 48 h; actives 15% (n = 420,000); AID 686978, 2013; Potency, µM (highest dose often 46.2 µM), for inactives: at the highest dose activity change, negative = growth inhibition, usual class: inhibitors; further: potency means the concentration at half of the fitted maximal effect; on the % scale 0 is the no-effect control and ±100 the full control effect; nearly all actives have a fitted effect of over 55% in size
#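 Readout: luminescence from CellTiter-Glo after 30 min in the dark at RT. Cells: DT40 Tdp1-/- with stable hTDP1, 400/well. Exposure: compounds alone, ≥48 hr, 37 °C.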
# miR-21 FLuc = miR-21 reporter, rising signal | 340,000 tested, under 10 active | AID 2288 | HeLa miR-21 FLuc reporter, luciferase, 48 h | Potency, µM (titrated, usually from 38.3 µM), for inactives: at the highest dose reporter change, positive = more light; active = well fitted rising curve with a large enough effect; inconclusive = small, poorly fitted or top-dose-only effect; inactive = no such curve, though single readings can be large or run the other way;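 further: % of control where 0% means no effect; miR-21 action dims this reporter so a rising signal means less miR-21 action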
#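 Compounds were titrated across several concentrations (up to approximately 40 uM) and incubated 48 hours with HeLa miR-21-FLuc reporter cells (miR-21 target sequence downstream of FLuc, endogenous miR-21). Readout was firefly luciferase luminescence after lytic detection reagent.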
# DT40 TDP1 CPT = growth inhibition of DT40 Tdp1-/-;hTDP1 cells with camptothecin (screen for TDP1 inhibitors); actives 12% (n = 420,000); chicken DT40 Tdp1-/-;hTDP1 cells + 20 nM CPT, ATP luminescence, 48 h; Potency, µM (highest dose often 46.2 µM), for inactives: at the top dose activity change, negative = growth inhibition, hits mostly inhibitors; AID 686979; further: potency means the concentration at half of the fitted maximal effect; on the % scale 0 is the no-effect control and ±100 the full control effect; nearly all actives have a fitted effect of over 55% in size
#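 Cell growth measured by CellTiter-Glo luminescence after a minimum 48 h, 37 C compound exposure with 20 nM CPT in Tdp1-knockout DT40 cells stably expressing hTDP1, seeded 400/well; qHTS titration format.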
# The depositor's hits bear a star; ? = inconclusive; / = no result. Hits are enriched below; roughly 16% of the tested compounds scored in any of these assays. Unless noted, the call rests on the fitted dose curve; in most records, active means well fitted curve in the direction sought with a large enough effect; inconclusive means small, poorly fitted or top-dose-only effect, or another doubt; inactive means no such curve, though single readings can be large; an effect the other way counts as inactive or inconclusive.
# Second line of a record: TDP1 inh, uPA surface inh, DT40 TDP1 no CPT, miR-21 FLuc, DT40 TDP1 CPT
- COC(=O)Cn1c(N2CCCC2)nc2c1c(=O)n(C)c(=O)n2C
 : /, -2%, 18%, 0%, 1%
- COc1ccc(N2CCN(c3nc4c(c(=O)n(C)c(=O)n4C)n3Cc3ccccc3)CC2)cc1
 : 12%, -6%, ?, 10%, 23µM*
- COc1ccc(OCC(O)Cn2c(N3CCCCC3)nc3c2c(=O)[nH]c(=O)n3C)cc1 (configuration not stated)
 : 5%, 4%, ?, 0%, -26%
- COc1ccc(OCC(O)Cn2c(N3CCCCC3)nc3c2c(=O)n(C)c(=O)n3C)cc1 (configuration not stated)
 : 3%, 1%, 16µM*, -7%, ?
- CC1CCCN(c2nc3c(c(=O)n(C)c(=O)n3C)n2Cc2ccccc2)C1 (configuration not stated)
 : 4%, -4%, 23µM*, 13%, ?
- C=C(C)Cn1c(N2CCN(c3ccc(OC)cc3)CC2)nc2c1c(=O)n(C)c(=O)n2C
 : 8%, -5%, 13µM*, 23%, 16µM*
- CN1CCN(c2nc3c(c(=O)n(C)c(=O)n3C)n2Cc2ccc(Cl)cc2)CC1
 : /, 8%, ?, 2%, -9%
- CC1CCCN(Cc2nc3c(c(=O)n(C)c(=O)n3C)n2Cc2ccc(Cl)cc2)C1 (configuration not stated)
 : 5%, /, -15%, -3%, -10%
- COc1cc(OC)cc(C(=O)NC2CCCCCCC2)c1
 : /, 5%, ?, -18%, -1%
- COc1cc(OC)c(NC(=O)CC(C)S(=O)(=O)c2ccc3c(c2)NC(=O)CO3)cc1Cl (configuration not stated)
 : -5%, /, -7%, 4%, 13%

# (further entries)
# Second line of a record: TDP1 inh, uPA surface inh, DT40 TDP1 no CPT, miR-21 FLuc, DT40 TDP1 CPT
- Cc1ccc(CNC(=O)c2nnc(Cc3ccc(Cl)cc3)o2)cc1
 : 2%, 1%, 9%, 0%, -9%
- O=C(Cn1c(-c2cccs2)cc2cc(Cl)ccc21)NCc1ccccc1
 : -1%, /, ?, 0%, ?
- Cn1nc(-c2ccccc2)c(-c2nc(-c3ccccc3Cl)no2)c1Cl
 : 4%, 3%, ?, 1%, ?
- O=C(Cc1ccccc1)NCC(=O)OC(c1ccccc1)c1ccccc1
 : /, 5%, -22%, -1%, -17%
- Cc1ccc(NC(=O)Cn2nc(C)c3nn(-c4ccc(Cl)cc4)c(C)c3c2=O)cc1F
 : 0%, /, 16µM*, 19%, ?
- Cc1ccc(NC(=O)Cn2nc(C)c3nn(-c4ccc(Cl)cc4)c(C)c3c2=O)cc1C
 : 0%, /, 15µM*, 0%, ?
- Cc1nn(CC(=O)Nc2ccc(C(C)C)cc2)c(=O)c2c(C)n(-c3ccc(Cl)cc3)nc12
 : -8%, /, ?, 3%, ?
- COc1ccc(Cl)cc1NC(=O)C(C)OC(=O)C1=NNC(=O)CC1 (configuration not stated)
 : 0%, 9%, -16%, /, -13%
- Oc1ccc2ccccc2c1CNc1ccc(Br)cc1
 : /, -17%, ?, 0%, 16µM*
- CC(=O)c1ccc(NC(=O)Cn2nc(C(F)(F)F)c3c2CCC3)cc1
 : 0%, /, -24%, -27%, -17%

# (cont.)
# Second line of a record: TDP1 inh, uPA surface inh, DT40 TDP1 no CPT, miR-21 FLuc, DT40 TDP1 CPT
- COc1ccccc1CNC(=O)c1ccc(CS(=O)(=O)c2ccccc2C)o1
 : 0%, 8%, ?, 2%, ?
- CC(C)NC(=O)c1ccc2c(c1)N(CC(=O)N1CCCCC1)C(=O)C(C)(C)O2
 : 2%, -3%, -23%, 0%, -2%
- CCN1CCCC1CNC(=O)c1ccc2c(c1)N(Cc1cccc(Cl)c1)C(=O)c1ccccc1S2(=O)=O (configuration not stated)
 : 6%, -27%, -2%, 1%, -23%
- CN(C(=O)c1ccc2c(c1)N(Cc1cccc(Cl)c1)C(=O)c1ccccc1S2(=O)=O)C1CCCCC1
 : 3%, /, ?, 15%, 21µM*
- O=C(OCC1CCCO1)c1ccc2c(c1)N(Cc1ccc(F)cc1)C(=O)c1ccccc1S2(=O)=O (configuration not stated)
 : -5%, /, -13%, -1%, -23%

# One compound at a time (already shown):
# O=C(Cn1c(-c2cccs2)cc2cc(Cl)ccc21)NCc1ccccc1 as listed: TDP1 inh = -1%; uPA surface inh = /; DT40 TDP1 no CPT = ?; miR-21 FLuc = 0%; DT40 TDP1 CPT = ?
# CN1CCN(c2nc3c(c(=O)n(C)c(=O)n3C)n2Cc2ccc(Cl)cc2)CC1 as listed: TDP1 inh = /; uPA surface inh = 8%; DT40 TDP1 no CPT = ?; miR-21 FLuc = 2%; DT40 TDP1 CPT = -9%

# High-throughput results deposited in PubChem BioAssay by National Center for Advancing Translational Sciences (NCATS).
